In patent US20070110901A1, “Method for identifying weakly binding molecule fragments having ligand properties, whereby the molecule fragments are applied in the form of microdrops of a corresponding solution to the crystal” (Proteros Biostructures GMBH, priority 2003, published 2007):

Experiment: physchem
Details: 50% DMSO, aqueous with cosolvent or surfactant or cyclodextrin

For `O=S(=O)(F)Cc1ccccc1` [PMSF, phenylmethylsulfonyl fluoride], the solubility was ≥ 10 mM.
